Measured values: ChEMBL document CHEMBL2203183, “Synthesis of N-phenyl-N-(3-(piperidin-1-yl)propyl)benzofuran-2-carboxamides as new selective ligands for sigma receptors” (Bioorg Med Chem, 2012)

Amino acid sequences for entries named in this document (tags omitted).
UniProt Q9R0C9, whole entry: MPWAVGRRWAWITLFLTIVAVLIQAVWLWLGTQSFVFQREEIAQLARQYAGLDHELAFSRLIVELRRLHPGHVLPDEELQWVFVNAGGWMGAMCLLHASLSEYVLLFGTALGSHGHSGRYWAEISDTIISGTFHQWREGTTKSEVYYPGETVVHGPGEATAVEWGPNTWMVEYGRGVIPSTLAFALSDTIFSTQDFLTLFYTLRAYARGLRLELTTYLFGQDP
UniProt P35462, whole entry: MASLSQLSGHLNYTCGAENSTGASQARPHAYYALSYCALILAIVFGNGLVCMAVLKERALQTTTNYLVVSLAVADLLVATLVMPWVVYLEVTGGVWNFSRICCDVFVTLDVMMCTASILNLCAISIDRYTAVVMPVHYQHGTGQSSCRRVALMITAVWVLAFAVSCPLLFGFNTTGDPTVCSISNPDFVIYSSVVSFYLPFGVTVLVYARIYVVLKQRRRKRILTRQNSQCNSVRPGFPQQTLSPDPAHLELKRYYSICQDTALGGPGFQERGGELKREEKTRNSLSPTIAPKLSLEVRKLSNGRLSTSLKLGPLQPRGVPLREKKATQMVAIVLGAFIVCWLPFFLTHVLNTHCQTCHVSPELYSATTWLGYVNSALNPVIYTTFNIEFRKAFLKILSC
UniProt P08913, whole entry: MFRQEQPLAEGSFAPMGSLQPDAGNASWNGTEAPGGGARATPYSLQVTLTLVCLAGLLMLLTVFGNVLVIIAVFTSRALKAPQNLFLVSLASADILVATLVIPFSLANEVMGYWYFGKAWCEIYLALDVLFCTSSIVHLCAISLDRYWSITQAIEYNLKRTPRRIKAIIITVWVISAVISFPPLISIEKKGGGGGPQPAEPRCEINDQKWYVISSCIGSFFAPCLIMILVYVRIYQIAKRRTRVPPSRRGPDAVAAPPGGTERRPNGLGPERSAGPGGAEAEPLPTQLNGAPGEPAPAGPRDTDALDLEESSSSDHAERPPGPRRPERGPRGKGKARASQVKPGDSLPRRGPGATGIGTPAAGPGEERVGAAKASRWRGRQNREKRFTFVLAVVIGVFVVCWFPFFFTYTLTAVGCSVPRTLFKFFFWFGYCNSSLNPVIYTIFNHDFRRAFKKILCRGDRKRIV

How the values were obtained:
[1] = target: Sigma non-opioid intracellular receptor 1 (Rattus norvegicus) (UniProt Q9R0C9); assay: Displacement of [3H](+)-pentazocine from sigma 1 receptor in rat brain membrane at 10 uM after 2.5 hrs by scintillation counting; format: cell membranes
PC-12 = assay: Selectivity ratio of Ki for sigma 2 receptor in rat PC12 cell membrane to Ki for sigma 1 receptor in rat brain membrane; format: cell-based
Summary of the method: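 Sigma-1: rat brain membranes, 3 nM [3H]pentazocine, 37 °C, 2.5 h. Sigma-2: PC12 homogenate, 1 nM [3H]DTG, room temperature, 2 h. […] Filtration and scintillation counting; IC50 from logistic fit converted to Ki by Cheng-Prusoff. Ratio is sigma-2 Ki over sigma-1 Ki.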

[2] = target: D(3) dopamine receptor (Homo sapiens) (UniProt P35462); assay: Displacement of [3H]N-methylspiperone from dopamine D3 receptor at 10 uM after 1.5 hrs by scintillation counting analysis
[3] = target: Alpha-2A adrenergic receptor (Homo sapiens) (UniProt P08913); assay: Displacement of [3H]clonidine from alpha2A adrenergic receptor at 10 uM after 40 mins by scintillation counting analysis
Summary of the method: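 NIMH-PDSP primary screen using membranes from transiently or stably transfected cell lines (e.g., HEK293, COS, CHO, NIH3T3). Compound at 10 μM final. Reference compounds: chlorpromazine (5-HT2A), methysergide (5-HT2B), LY278584 (5-HT3), oxymetazoline (α2A), prazosin (α2C), atropine (M4). Mean % inhibition of radioligand specific binding, N = 4.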

Compound | inhibition [1] [%] | Ratio Ki (PC-12) | inhibition [2] [%] | inhibition [3] [%]
Cc1c(C(=O)N(CCCN2CCCCC2)c2ccccc2)oc2ccccc12 | 101 | 2 | 60.6 | 
COc1cc2oc(C(=O)N(CCCN3CCCCC3)c3ccccc3)c(C)c2cc1OC |  |  |  | 55.2
